Laboratory results published in ChEMBL document CHEMBL1177720, “Selective hexapeptide agonists and antagonists for human complement C3a receptor” (J Med Chem, 2010).

How the values were obtained:
[1] = target: T1, C5a anaphylatoxin chemotactic receptor 1 (Homo sapiens, UniProt P21730); experiment: Displacement of [125I-C5a] from C5a receptor in human PBMC by scintillation counting
T1 sequence (P21730 whole entry): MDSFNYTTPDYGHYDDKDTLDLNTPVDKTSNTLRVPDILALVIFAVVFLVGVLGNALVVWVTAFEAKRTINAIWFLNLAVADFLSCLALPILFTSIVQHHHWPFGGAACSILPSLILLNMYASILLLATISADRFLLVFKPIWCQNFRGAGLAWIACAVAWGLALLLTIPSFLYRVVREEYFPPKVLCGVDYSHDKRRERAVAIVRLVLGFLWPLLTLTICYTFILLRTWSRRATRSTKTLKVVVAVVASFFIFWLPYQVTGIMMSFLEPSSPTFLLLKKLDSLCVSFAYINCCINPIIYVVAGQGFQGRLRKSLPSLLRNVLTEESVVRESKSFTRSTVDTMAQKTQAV

[2] = target: T2, C3a anaphylatoxin chemotactic receptor (Homo sapiens, UniProt Q16581); experiment: Displacement of [125I-C3a] from C3a receptor in human PBMC by scintillation counting
T2 sequence (Q16581 whole entry): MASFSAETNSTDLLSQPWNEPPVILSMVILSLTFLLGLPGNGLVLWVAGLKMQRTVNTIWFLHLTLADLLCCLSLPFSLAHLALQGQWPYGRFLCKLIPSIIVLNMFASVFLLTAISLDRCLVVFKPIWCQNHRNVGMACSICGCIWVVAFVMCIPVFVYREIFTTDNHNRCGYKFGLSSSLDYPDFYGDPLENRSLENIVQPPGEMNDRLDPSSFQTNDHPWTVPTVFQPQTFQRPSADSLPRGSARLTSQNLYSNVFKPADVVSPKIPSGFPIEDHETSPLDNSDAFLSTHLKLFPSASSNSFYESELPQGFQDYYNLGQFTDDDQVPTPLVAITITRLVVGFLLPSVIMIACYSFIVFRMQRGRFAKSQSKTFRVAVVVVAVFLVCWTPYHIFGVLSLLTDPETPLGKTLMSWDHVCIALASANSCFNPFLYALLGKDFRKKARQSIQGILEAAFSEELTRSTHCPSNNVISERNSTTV

CSCC[C@H](NC(=O)[C@@H]1CCCN1C(=O)[C@H](CCCCN)NC(=O)[C@H](Cc1ccccc1)NC(=O)[C@H](CO)NC(=O)[C@@H](N)Cc1ccc(O)cc1)C(=O)N1CCC[C@H]1C(=O)N[C@@H](CC(C)C)C(=O)N[C@H](C)C(=O)N[C@@H](CCCN=C(N)N)C(=O)O gave an IC50 [1] of 4700 nM and an IC50 [2] of 140 nM.
